In US12139488B2, “Pyrido[3,2-d]pyrimidine compounds uses thereof for treating a proliferative disease” (Universite de Montreal, priority 2021, dated 2024):

Key:
[1] = system: pERK in HCT-116 cells (KRAS G13D); test: Phospho-ERK inhibition (AlphaLISA SureFire Ultra p-ERK 1/2), HCT116; details: for HCT116 pERK % Ymin: value in parentheses; for IC50: read-out: HCT116 pERK IC50; for HCT116 pERK Ymin %: Ymin in brackets; for HCT116 pERK % Ymin (lowest value of the IC50 curve): Ymin above −20% = minimal or no paradoxical activation
Method in brief: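 Overnight-seeded cells received compound for an hour before lysis, and phospho-ERK1/2 was then measured with an AlphaLISA SureFire Ultra kit. Percent inhibition relative to vehicle, after trametinib background subtraction, gave IC50 by curve fitting.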

HT29 cells (BRAF V600E) = test: Proliferation inhibition (CellTiter-Glo), HT29; details: read-out: HT-29 Prolif. EC50; HT-29, 3 days
Experimental: (§1) All cancer cell lines (A375, A101D, A2058, RKO, HT29 SK-MEL 30, IPC298, HepG2, HCT-116, Lovo, SWV620, SW480, NCI-H358, NCI-H2122, Calu-6, NCIH2087, NCIH1755, NCIH1666 and Mewo) were obtained from ATCC and cultured in RPMI-1640 medium (Gibco) supplemented with 5% heat inactivated fetal bovine serum (FBS, Wisent) at 37° C. under 5% CO2. Cells were maintained in T175 flasks (Greiner). They were passaged by removing the culture medium, washing once in 10 mL of room temperature Phosphate Buffered Saline (PBS; Wisent) and incubating at 37° C. with 2 mL of 0.05% Trypsin (Thermo-Fisher). Trypsin was then inactivated by adding complete growth medium and the cells were then replated in a T175 culture dish at the appropriate dilution. All cell lines were routinely tested for mycoplasma contamination. Tissue type and mutational status of each cell line can be found in Table B.
(§2) CellTiter-Glo® viability analysis was conducted on cells plated in 100 μL of complete RPMI-1640 growth medium in 96-well flat-bottomed white opaque plates (Greiner or Croning) at a density indicated in Table E (for each CCL, number of cells plated per well of a 96-well plate to perform the CellTiter-Glo® cell viability assay). The cell density in cells/cm^2 would correspond to cell number divided by the area of one well of a 96-well plate (0.32 cm^2). Cells were maintained overnight at 37° C. under 5% CO2 before treatment with compounds' dilution series for 3 days.
(§3) In a dilution series 100 μL/well of test substance dilution prepared in complete RPMI-1640 growth media was added to the cells plated initially in 100 μL of growth media. The dilution series is selected so that ten concentrations cover a range from 10 μM to 0.33 nM. If necessary (as in the case of A375 cells, which were more sensitive to the compounds) the initial concentration of 10 μM is lowered to 1 μM and further dilution is carried out accordingly. The final concentration of DMSO in the assay is set at is 0.5%.
(§4) After 3 days of incubation, the growth media were removed by aspiration and 60 μL of diluted CellTiter-Glo® reagent (10 μL CellTiter-Glo® reagent+50 μL of PBS) was added to each well. Cells were allowed to lyse and to equilibrate in CellTiter-Glo® reagent by 5 min incubation on a plate shaker followed by 10 min incubation at room temperature. Luminescence signals were then acquired on a Synergy Neo2 plate reader (Biotek).
(§5) The effect of each compound dilution on the proliferation of cancer cell lines was expressed in % inhibition and calculated as follows. An internal 100% inhibition control (1 μM of trametinib; cat #HY-10999; MedChem Express; CAS #871700-17-3) was included in each plate and used as a measure of CellTiter-Glo® signal background. The value obtained for trametinib was subtracted from each data point. The average of DMSO (vehicle) controls (set as 0% inhibition) was established and used to calculate % inhibition: % inhibition=100*(1−((CellTiter-Glo® signalcompound)/(CellTiter-Glo® signalDMSO)))
(§6) The ability of each compound to inhibit proliferation was expressed as a EC50 value obtained by plotting the effect values for each data point of a dilution series and fitting the obtained curves using a log(agonist) versus response-variable slope (four parameters) function using GraphPadPrism (V7.0) or Dotmatics Screening Ultra platform.

[2] = system: pERK in IPC298 cells (NRAS-Q61L); test: Phospho-ERK inhibition (AlphaLISA), IPC298; details: for IPC298 pERK % Ymin: IPC298, value in parentheses; for IC50: read-out: IPC298 pERK IC50, IPC298
Experimental: as §1
(§7) AlphaLISA® SureFire® Ultra™ p-ERK 1/2 (Thr202/Tyr204) analysis was conducted on cells plated in 100 μL of complete RPMI-1640 growth medium in 96-well flat-bottomed transparent dishes (Costar) at a density indicated in Table C. Cells were maintained overnight at 37° C. under 5% CO2 before treatment with compounds' dilution series for one hour. The cell density in cells/cm^2 corresponds to cell number divided by the area of one well of a 96-well plate ([…]).
(§8) In a dilution series 100 μL/well of test substance dilution prepared in complete RPMI-1640 growth media was added to the cells. The dilution series is selected so that ten concentrations cover a range from 10 μM to 0.33 nM. If necessary the initial concentration of 10 μM is increased to 100 μM or lowered to 1 μM (as in the case of A375 and H1666 cells, which are generally more sensitive to the compounds) and further dilution is carried out accordingly. The final concentration of DMSO in the assay is set at 0.5%.
(§9) After treatment, media was removed and cells were lysed in 50 μL of 1× AlphaScreen Ultra Lysis Buffer (Perkin Elmer). The AlphaLISA® SureFire® Ultra™ p-ERK 1/2 (Thr202/Tyr2O4) (PerkinElmer) reactions were performed with 5 μL of cell lysate according to the manufacturer's specifications in 384-well proxyplates (Perkin Elmer) followed by overnight incubation of the reactions at room temperature in a humidified chamber. After completion of the reactions, the signals were recorded on an EnVision plate reader (Perkin Elmer) using built in AlphaLISA® settings.
(§10) The effect of each compound dilution on the pERK signal was expressed in % inhibition and calculated as follows. An internal 100% inhibition control ([…] trametinib, cat #HY-10999; MedChem Express; CAS #871700-17-3) was included in each plate and used as a measure of pERK background. First, the value obtained for trametinib was subtracted from each data point. The average of DMSO (vehicle) controls (set as 0% inhibition) was established and used to calculate % inhibition: % inhibition=100*(1-((pERK signalcompound)/(pERK signalDMSO)))
as §6, with “pERK signal” for “proliferation”, “an IC50” for “a EC50”, “inhibition” for “effect”
(§11) When present, paradoxical pERK induction is inferred from the negative % inhibition values observed in the pERK IC50 curves of a compound.

[3] = system: pERK in NCIH2087 cells (BRAF L597V; KRAS Q61K); test: Phospho-ERK inhibition (AlphaLISA), NCIH2087; details: for NCIH2087 pERK % Ymin: NCIH2087, value in parentheses; for IC50: read-out: NCIH2087 pERK IC50, NCIH2087
Experimental: as §1, §7, §8, §9, §10
as §6, with “pERK signal” for “proliferation”, “an IC50” for “a EC50”, “inhibition” for “effect”
as §11

Lovo cells (KRAS-G13D) = test: Proliferation inhibition (CellTiter-Glo), Lovo; details: read-out: Lovo Prolif. EC50, 3 days
Experimental: as §1, §2, §3, §4, §5, §6

[4] = system: pERK in NCI-H358 cells (KRAS-G12C); test: Phospho-ERK inhibition (AlphaLISA), NCI-H358; details: for NCI-H358 pERK % Ymin: NCI-H358, value in parentheses; for IC50: read-out: NCI-H358 pERK IC50, NCI-H358
Experimental: as §1, §7, §8, §9, §10
as §6, with “pERK signal” for “proliferation”, “an IC50” for “a EC50”, “inhibition” for “effect”
as §11

[5] = HCT116 cells, class symbol before the bracket

| SMILES | HCT116 pERK % Ymin ([1]; HCT116, Table D) [%] | IC50 ([1]; HCT116, Table D) [nM] | IC50 ([1]; HCT116 cells, class symbol) [nM] | EC50 (HT29 cells (BRAF V600E)) [nM] | IPC298 pERK % Ymin [2] [%] | IC50 [2] [nM] | NCIH2087 pERK % Ymin [3] [%] | IC50 [3] [nM] | EC50 (Lovo cells (KRAS-G13D)) [nM] | NCI-H358 pERK % Ymin [4] [%] | IC50 [4] [nM] | HCT116 pERK Ymin % ([1]; HCT116 cells) [%] | IC50 [1, 5] [nM] | HCT116 pERK % Ymin (lowest value of the IC50 curve) ([1]; HCT116 cells) [%] | IC50 ([1]; HCT116 cells) [nM] |
| --- | --- | --- | --- | --- | --- | --- | --- | --- | --- | --- | --- | --- | --- | --- | --- |
| O=S(=O)(CCCN1CCOCC1)c1cn(-c2ccc3ncnc(Nc4c(F)ccc(NS(=O)(=O)c5cccc(Cl)c5Cl)c4F)c3n2)c2ccccc12 | 0 | 30 to 300 | < 500 | < 30 | 13 | < 30 | 14 | < 30 | < 30 | −9 | 30 to 300 |  |  |  |  |
| Cc1c(Cl)cccc1S(=O)(=O)Nc1ccc(F)c(Nc2ncnc3ccc(-n4cc(C(=O)N5CCN(C)CC5)c5ccccc54)nc23)c1F | −8.9 | 30 to 300 |  | < 30 | 29 | 30 to 300 | 17 | < 30 | < 30 | −4 | 30 to 300 | −7.6 | < 500 |  |  |
| CS(=O)(=O)C1CCN(c2cccc3c2nnn3-c2ccc3ncnc(Nc4c(F)ccc(NS(=O)(=O)c5cccc(Cl)c5Cl)c4F)c3n2)CC1 | 5 | 30 to 300 |  | < 30 | 8 | 30 to 300 | −10 | < 30 | < 30 | 4 | 30 to 300 |  |  | 5 | < 500 |
| Cc1c(F)cccc1S(=O)(=O)Nc1ccc(F)c(Nc2ncnc3ccc(-n4cnc5c(-c6cccnc6)cccc54)nc23)c1F | −6.3 | 30 to 300 |  | < 30 | 7 | 30 to 300 | 2 | 30 to 300 | 300 to 3000 | −15 | 30 to 300 | −6.3 | < 500 |  |  |
| Cc1c(Cl)csc1S(=O)(=O)Nc1ccc(F)c(Nc2ncnc3ccc(-n4cc(S(=O)(=O)N(C)CCN(C)C)c5ccccc54)nc23)c1F | 8 | 30 to 300 |  | < 30 | −13 | 30 to 300 | −5 | < 30 | < 30 | 8 | 30 to 300 |  |  | 8 | < 500 |
| O=S(=O)(Nc1ccc(F)c(Nc2ncnc3ccc(-n4cnc5c(N6CCC7(CCCC7)CC6)cccc54)nc23)c1F)c1cccc(Cl)c1Cl | −4 | 30 to 300 |  | < 30 | 14 | 30 to 300 | 11 | < 30 | < 30 | 25 | 30 to 300 |  |  | −4 | < 500 |
| COCCOc1cccc2c1nnn2-c1ccc2ncnc(Nc3c(F)ccc(NS(=O)(=O)c4cccc(Cl)c4Cl)c3F)c2n1 | 0 | 30 to 300 |  | < 30 | 13 | 30 to 300 | −2 | < 30 | < 30 | 8 | 30 to 300 |  |  | 0 | < 500 |
| CN(CCN1CCOCC1)S(=O)(=O)c1cn(-c2ccc3ncnc(Nc4c(F)ccc(NS(=O)(=O)c5cccc(Cl)c5Cl)c4F)c3n2)c2ccccc12 | −6 | 30 to 300 | < 500 | < 30 | 11 | 30 to 300 | 12 | < 30 | < 30 | 3 | 30 to 300 |  |  |  |  |
| Cc1c(F)cccc1S(=O)(=O)Nc1ccc(F)c(Nc2ncnc3ccc(-n4nc(C(=O)N(C)Cc5cccnc5)c5ccccc54)nc23)c1F | −6.5 | 30 to 300 | < 500 | < 30 |  |  |  |  | < 30 |  |  |  |  |  |  |

Like-named read-outs stand apart in the source and are kept apart here.
